Experiments:
E. coli Endo IV = target: T1, E. coli Endo IV (Escherichia coli, UniProt P0A6C1); assay: E. coli Endo IV profiling counterscreen; format: biochemical; settings: read-out: EndoIV IC50;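 also: selectivity counterscreen of candidate APE1 inhibitors against the bacterial endonuclease Endo IV, run in the same assay format as the primary APE1 high-throughput screen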
T1 construct: made in house

[1] = target: double-stranded 17-mer DNA fragment; assay: ThO (Thiazole Orange) DNA displacement assay; settings: read-out: ThO-DNA binding IC50;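 also: miniaturized displacement of the intercalating dye from unlabeled duplex DNA, used to flag nonspecific DNA binders, chiefly intercalators, groove binders may be missed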

Compound | IC50 (E. coli Endo IV) [µM] | IC50 [1] [µM]
CC(=O)Nc1sc2c(c1-c1nc3ccccc3s1)CCN(C(C)C)C2 [MLS000419194] | 12.6 | –
Cc1ccc2c(=O)c3ccccc3n(CCCN)c2c1C [NCGC00161415] | 12.6 | –
Cc1c2c(c(O)c3c(O)cccc13)C(=O)O[C@H]2C1C(N(C)C)C(O)=C(C(N)=O)C(=O)[C@H]1O (stereo partly shown) [NCGC00163605] | – | 12.6
phthalocyanine tetrasulfonate hydrate [NCGC00165867] | 1.6 | –
